{
  "sequences": {"note": "Chains of the proteins cited; added tags and fusions are not shown.", "UniProt P21397, whole entry": "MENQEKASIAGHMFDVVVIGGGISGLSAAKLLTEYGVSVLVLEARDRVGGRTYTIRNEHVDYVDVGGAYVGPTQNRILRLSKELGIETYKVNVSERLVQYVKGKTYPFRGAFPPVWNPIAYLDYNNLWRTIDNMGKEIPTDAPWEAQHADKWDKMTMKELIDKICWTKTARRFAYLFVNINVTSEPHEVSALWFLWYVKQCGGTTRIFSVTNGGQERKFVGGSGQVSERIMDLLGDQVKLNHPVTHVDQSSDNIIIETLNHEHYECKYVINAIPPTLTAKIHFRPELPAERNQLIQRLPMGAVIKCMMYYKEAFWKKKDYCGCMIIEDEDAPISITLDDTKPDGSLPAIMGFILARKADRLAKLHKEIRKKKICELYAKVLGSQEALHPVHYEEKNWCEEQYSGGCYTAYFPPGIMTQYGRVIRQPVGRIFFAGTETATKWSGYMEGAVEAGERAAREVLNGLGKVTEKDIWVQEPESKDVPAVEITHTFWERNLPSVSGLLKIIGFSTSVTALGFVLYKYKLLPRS"},
  "source": "patent US20140296255A1",
  "biological_target": "Human recombinant monoamine oxidase MAO-A (Homo sapiens, UniProt P21397)",
  "assay": "MAO-A inhibition, kynuramine fluorescence assay",
  "type": "biochemical",
  "settings": "read-out: IC50 for MAO-A; initial determination",
  "data": [
    {"compound": "CN1CCN(C(=O)CN[C@H]2C[C@@H]2c2ccc(OCc3ccccc3)cc2)CC1", "note": "(relative stereo)", "values": [
      {"measurement": "IC50", "value": "15 to 20", "unit": "µM"}
    ]}
  ]
}
